# Laboratory results as given in PubChem BioAssay (EPA / NIEHS).
# Amino acid sequences for entries named in this document (tags omitted). A change or cut given only in a name is not applied to a line headed by its entry.
# UniProt Q9UNQ0: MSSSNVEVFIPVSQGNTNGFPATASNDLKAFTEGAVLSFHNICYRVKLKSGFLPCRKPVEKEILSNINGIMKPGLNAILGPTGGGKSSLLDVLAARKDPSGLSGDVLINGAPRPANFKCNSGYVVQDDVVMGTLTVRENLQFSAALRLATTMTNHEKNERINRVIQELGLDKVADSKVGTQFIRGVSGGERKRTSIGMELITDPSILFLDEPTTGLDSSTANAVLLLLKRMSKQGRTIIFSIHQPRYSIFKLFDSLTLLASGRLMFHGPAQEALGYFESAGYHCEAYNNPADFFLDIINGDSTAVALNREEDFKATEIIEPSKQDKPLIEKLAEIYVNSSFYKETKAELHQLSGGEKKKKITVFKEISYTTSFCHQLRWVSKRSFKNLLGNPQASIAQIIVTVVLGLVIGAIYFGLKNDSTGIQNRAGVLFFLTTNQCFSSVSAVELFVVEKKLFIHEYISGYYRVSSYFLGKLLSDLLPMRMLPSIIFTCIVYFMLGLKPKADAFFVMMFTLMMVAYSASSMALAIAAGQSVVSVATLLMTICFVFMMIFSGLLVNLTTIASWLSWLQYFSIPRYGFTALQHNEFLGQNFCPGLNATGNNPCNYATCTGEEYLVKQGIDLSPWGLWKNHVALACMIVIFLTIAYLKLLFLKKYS
# Values joined by “and” are separate entries in the source; they are usually repeats but may differ in a detail not shown here. Equal entries are not always repeated. This is a selection; strong and weak results do not stand in their true shares. Inconclusive results are not listed. Where a structure was tested more than once in an assay, its records may differ in their call. Active and inactive are the calls of the source. Rule for the calls: active = hit-call score of the fitted dose curve at least 0.9, where 1 is the maximum; inconclusive = response in the unintended direction; inactive = score below 0.9.
# What was measured:
# [1] = test system: Thyroperoxidase (TPO), gene 54314; test: CCTE_Simmons_AUR_rTPO: CCTE's Amplex UltraRed Assay for Thyroperoxidase (TPO) Inhibition, Simmons Lab (AID 2283662);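 for AC50: potency for loss of signal meaning inhibition of peroxidase activity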
# Procedure: CCTE_Simmons_AUR_rTPO is a biochemical, single-readout assay that uses microsomes from rat thyroid gland in a tissue-based cell-free assay. Measurements were taken 0.5 hour after chemical dosing in a 384-well plate.CCTE_Simmons_AUR_rTPO is the assay component measured from the CCTE_Simmons_AUR_rTPO assay. It is designed to make measurements of thyroperoxidase (TPO) activity as detected with fluorescence intensity signals using the Amplex UltraRed technology as a form of enzyme activity reporter.Data from the assay component CCTE_Simmons_AUR_rTPO was analyzed at the endpoint, CCTE_Simmons_AUR_rTPO, in the positive analysis fitting direction relative to DMSO as the negative control and baseline of activity. Using a type of enzyme reporter, the Amplex UltraRed assay, loss-of-signal activity can be used to understand decreased peroxidase activity in the presence of excess […]. To generalize the intended target to other relatable targets, this assay endpoint is annotated to the oxidoreductase intended target family, where the subfamily is peroxidase.
# As described previously (Paul et al., 2014), the AUR substrate was repurposed to detect peroxidase (ie, TPO) activity in the presence of excess H2O2 for the AUR-TPO assay. The reaction profile for the 384-well format AUR-TPO assay is scaled to an 80 ul assay volume containing 25 uM AUR, 300 uM H2O2, and 5 ug microsomal protein in 200 mM phosphate buffer. The assay concentration of thyroid microsomal protein was approximately […]. First, rat microsomes containing TPO and diluent 200mM potassium phosphate buffer were added to opaque, black 384-well plates (Greiner, BioExpress; Kaysville, Utah) using an automated liquid handler (BioTek MicroFlo; Winooski, Vermont) with a plastic 5 ul tubing cassette. Similarly, AUR was added next by automated liquid handling. Test compounds were administered using a HDRT as described earlier to achieve a 0.5% final DMSO concentration. Finally, H2O2 (300 uM, final concentration) was then added by the BioTek MicroFlo to initiate the reaction. Microplates were incubated at 37C in the dark for 30min. Plates were then shaken on a fluorescence plate reader (FLUOStar Optima, BMG LabTech; GmbH, Germany), and endpoint fluorescence (top read) was measured using 10 flashes per well at 544/590nm excitation/emission. Three biological replicates of technical singles were run for every chemical concentration tested. A titrated range of MMI served as a positive control for TPO inhibition on each plate of the AUR-TPO screening campaign. Test chemicals were administered as a titrated series of 8 concentrations from 5 nM up to 87.5 uM [final] for 30 minutes prior to single endpoint detection. Dimethylsulfoxide [DMSO] was used as the vehicle control. Methimazole [MMI] was used as the positive control and was administered as a titrated series of 8 concentrations from 1 nM up to 271 uM [final].
# [2] = CCTE_Simmons_CellTiterGLO_HEK293T: Viability Assessment in CCTE's Assays for Thyroperoxidase (TPO) Inhibition, Simmons Lab (AID 2283665);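 for AC50: cells exposed to compound for 24 h before readout; actives reduce ATP signal below DMSO vehicle meaning cytotoxicity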
# Summary of the method: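 Cytotoxicity counter-screen: human HEK293T cells in low-serum (1% FBS) medium receive test chemical, 5 nM to 87.5 uM final, for 24 h; ATP is quantified by luciferase luminescence.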
# [3] = Tanguay_ZF_120hpf_TR_legacy: (Legacy) Oregon State University Tanguay Lab 120 Hour Post-fertilization zebrafish Assay for Touch Response (AID 2283667)
# Summary of the method: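 Tropical 5D wild-type zebrafish embryos statically exposed to 120 hpf at 28°C, sealed and dark-covered, 0.64% DMSO final; touch response scored as present/absent by brightfield microscopy at 120 hpf. Trimethyltin chloride 5 uM positive control; dead embryos not scored.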
# [4] = read-out: Broad substrate specificity ATP-binding cassette transporter ABCG2 (Homo sapiens) (UniProt Q9UNQ0); test: CLD_ABCG2_6hr: CellzDirect (CLD) Gene Expression Assay for ABC Transporter (ABCG2) at 6 hours (AID 2283660)
# Procedure: (§1) CLD_6hr is a cell-based, multiplexed-readout assay that uses hepatocyte, a human liver primary cell, with measurements taken at 6 hours after chemical dosing in a 96-well plate.CLD_ABCG2_6hr is one of 16 assay component(s) measured or calculated from the CLD_6hr assay. It is designed to make measurements of mRNA induction, a form of inducible reporter, as detected with chemiluminescence signals by Quantitative Nuclease Protection Assay (qNPA) technology.Data from the assay component CLD_ABCG2_6hr was analyzed at the endpoint, CLD_ABCG2_6hr, in the positive analysis fitting direction relative to DMSO as the negative control and baseline of activity. […] Furthermore, this assay endpoint can be referred to as a primary readout. […]
# (§2) Human hepatocyte cultures were treated daily for two consecutive days with fresh dosing solutions containing appropriate concentrations of the 320 ToxCast chemicals (chemical identities were blinded to CellzDirect and other ToxCast collaborators), vehicle control (0.2% DMSO), and positive control inducers as summarized in Table 1. […] Cultures for each treatment group (i.e., media, vehicle [0.2% DMSO], positive control inducers [multiple concentrations], and the ToxCast chemicals [multiple concentrations]) were observed and cell morphology was assessed relative to vehicle control cultures at each harvest time point (0, 6, 24, or 48 h). […]
# [5] = read-out: xenobiotic metabolism (CYP2C9), CYP2C9 (gene 1559); test: CLD_CYP2C9_6hr: CellzDirect (CLD) Gene Expression Assay for xenobiotic metabolism (CYP2C9) at 6 hours (AID 2283664)
# Procedure: as §1, with “plate.CLD_CYP2C9_6hr” for “plate.CLD_ABCG2_6hr”, “CLD_CYP2C9_6hr” for “CLD_ABCG2_6hr”, “CLD_CYP2C9_6hr,” for “CLD_ABCG2_6hr,”
# as §2
# [6] = read-out: organic anion transporter (SLCO1B1), SLCO1B1 (gene 10599); test: CLD_SLCO1B1_6hr: CellzDirect (CLD) Gene Expression Assay for organic anion transporter (SLCO1B1) at 6 hours (AID 2283668);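 note: active means mRNA induction above DMSO baseline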
# Summary of the method: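 Primary human hepatocytes dosed daily with test chemicals (multiple concentrations) in 0.2% DMSO vehicle; harvested at 6 h. SLCO1B1 mRNA quantified by qNPA chemiluminescence, fitted as gain-of-signal versus DMSO; cytotoxicity from phase-contrast morphology flagged alongside.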
# [7] = read-out: sulfotransferase (SULT2A), SULT2A1 (gene 6822); test: CLD_SULT2A_6hr: CellzDirect (CLD) Gene Expression Assay for sulfotransferase (SULT2A) at 6 hours (AID 2283669);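 note: hits raise transcript level above the DMSO vehicle baseline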
# Procedure: as §1, with “plate.CLD_SULT2A_6hr” for “plate.CLD_ABCG2_6hr”, “CLD_SULT2A_6hr” for “CLD_ABCG2_6hr”, “CLD_SULT2A_6hr,” for “CLD_ABCG2_6hr,”
# as §2
# [8] = read-out: xenobiotic metabolism (CYP1A1), CYP1A1 (gene 1543); test: CLD_CYP1A1_6hr: CellzDirect (CLD) Gene Expression Assay for xenobiotic metabolism (CYP1A1) at 6 hours (AID 2283661);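 for AC50: potency for transcript induction above DMSO vehicle baseline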
# Summary of the method: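 Primary human hepatocytes from two donors, compound versus 0.2% DMSO vehicle. CYP1A1 mRNA measured 6 h after dosing by quantitative nuclease protection assay with chemiluminescent read-out; induction fitted relative to DMSO, cytotoxicity flagged by microscopy.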
# [9] = read-out: xenobiotic metabolism (CYP1A2), CYP1A2 (gene 1544); test: CLD_CYP1A2_6hr: CellzDirect (CLD) Gene Expression Assay for xenobiotic metabolism (CYP1A2) at 6 hours (AID 2283663);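 for AC50: potency is for induction meaning a rise in mRNA above DMSO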
# Procedure: as §1, with “plate.CLD_CYP1A2_6hr” for “plate.CLD_ABCG2_6hr”, “CLD_CYP1A2_6hr” for “CLD_ABCG2_6hr”, “CLD_CYP1A2_6hr,” for “CLD_ABCG2_6hr,”
# as §2
# [10] = read-out: alkyl and aryl transferase (GSTA2), GSTA2 (gene 2939); test: CLD_GSTA2_6hr: CellzDirect (CLD) Gene Expression Assay for alkyl and aryl transferase (GSTA2) at 6 hours (AID 2283666)
# Summary of the method: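 Primary human hepatocytes from two donor preparations were dosed daily with fresh compound at multiple concentrations, 0.2% DMSO vehicle. GSTA2 mRNA was measured at 6 hours by qNPA chemiluminescence; induction fitted relative to DMSO, with cytotoxicity flagged morphologically.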
smiles,measurement,setting,value
ClP(Cl)c1ccccc1,AC50,[1],active: 26.2 µM
same,outcome,[2],inactive
CC(C)CCCCCCCOP(OCCCCCCCC(C)C)Oc1ccccc1,AC50,[1],active: 18.8 µM
same,AC50,[2],active: 89.3 µM
O=[P+](Oc1ccccc1)Oc1ccccc1,AC50,[1],active: 16.2 µM
CN(C(=O)Cc1cccc2occc12)[C@H]1CC[C@@]2(CCCO2)C[C@@H]1N1CCCC1,outcome,[3],inactive
O=C1C2CC=CCC2C(=O)N1SC(Cl)(Cl)C(Cl)Cl (centres undefined),outcome,[4],inactive
same,outcome,[5],inactive
same,outcome,[3],inactive
same,outcome,[6],inactive
same,outcome,[7],inactive
Cc1cc([N+](=O)[O-])cc([N+](=O)[O-])c1O,outcome,[3],inactive
CC(C)OP(=S)(OC(C)C)SCCNS(=O)(=O)c1ccccc1,outcome,[4],inactive
same,AC50,[8],active: 5.8 µM and active: 273 nM
same,outcome,[8],inactive
same,AC50,[1],active: 26.7 µM and active: 7.67 µM
same,outcome,[1],inactive
same,AC50,[9],active: 8.44 µM and active: 21.9 nM
same,outcome,[9],inactive
same,outcome,[5],inactive
same,outcome,[10],inactive
same,outcome,[3],inactive
same,outcome,[6],inactive
same,outcome,[7],inactive
